From patent US9303045B2, “5-HT3 receptor antagonists” (Takeda Pharmaceutical Company Limited, priority 2013, dated 2016)
Where a name gives a salt, the structure may show the parent alone.

Chains of the proteins cited; added tags and fusions are not shown. Residues count along the entry.
UniProt P46098, 24-478: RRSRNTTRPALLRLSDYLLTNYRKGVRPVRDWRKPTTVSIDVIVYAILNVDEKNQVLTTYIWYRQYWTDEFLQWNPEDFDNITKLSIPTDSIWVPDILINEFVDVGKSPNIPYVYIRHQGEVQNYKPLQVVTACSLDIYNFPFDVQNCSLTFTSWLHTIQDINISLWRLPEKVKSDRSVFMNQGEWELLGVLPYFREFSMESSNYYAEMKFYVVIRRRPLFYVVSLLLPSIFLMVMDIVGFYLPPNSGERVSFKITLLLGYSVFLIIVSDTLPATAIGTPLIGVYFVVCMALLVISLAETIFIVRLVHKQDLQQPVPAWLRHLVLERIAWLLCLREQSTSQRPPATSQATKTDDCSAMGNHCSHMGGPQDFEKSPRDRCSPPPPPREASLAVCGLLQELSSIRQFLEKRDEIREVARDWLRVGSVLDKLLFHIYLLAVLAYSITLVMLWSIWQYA

Biological target: 5HT3a receptor expressed in HEK-293T cells (Homo sapiens (Human), UniProt P46098)
Assay: Inhibition of Ca flux activity of 5HT3 in vitro assay
Type: cell-based
Details: calcium flux, 5HT 216 nM, approximate values
Method: Inhibition of Ca Flux Activity of 5HT3 In Vitro Assay
The 5HT3 antagonist activity of the compounds of the invention was determined by measuring the ability of the compounds to inhibit the calcium flux activity of […] receptor expressed in HEK-293T cells. HEK-293T cells were transfected with the 5HT3a expression construct using Xtreme Gene 9 (Roche) in 150 mm tissue culture treated plates and incubated for 24 hours at 37° C. Cells were then split and plated at a density of 60K cells/well in poly-lysine coated, black 96-well plates with clear bottoms (BD BioSciences) and incubated overnight at 37° C. Growth media was removed and cells loaded with 200 uL calcium indicator dye in HBSS containing 20 mM HEPES (Calcium 5 Assay kit, Molecular Devices) and incubated at 37° C. for 1 hour. While cells were incubating, the 10× antagonist and agonist/antagonist addition plates were made. […] Test plate and addition plate were loaded into the FlexStation III (Molecular Devices), and using the fluidics, 22.5 uL compound additions were made (at t=˜17 seconds), and fluorescence was measured for 90 seconds, reading every 2.2 seconds. Data sets were analyzed as max minus min using Software Max Pro (Molecular Devices). […]

Structure (SMILES): CN1C2COCC1CC(NC(=O)c1cn(CC(F)F)c3ncc(F)cc13)C2 [Example 68, 1-(2,2-difluoroethyl)-5-fluoro-N-((1R,5S,7S)-9-methyl-3-oxa-9-azabicyclo[3.3.1]nonan-7-yl)-1H-pyrrolo[2,3-b]pyridine-3-carboxamide, 2,2,2-trifluoroacetate]
- IC50: 950 pM

Structure (SMILES): CN1[C@@H]2COC[C@H]1C[C@@H](OC(=O)c1cn(CC#N)c3c(F)nccc13)C2 [Example 142, (1R,5S,7s)-9-methyl-3-oxa-9-azabicyclo[3.3.1]nonan-7-yl 1-(cyanomethyl)-7-fluoro-1H-pyrrolo[2,3-c]pyridine-3-carboxylate, 2,2,2-trifluoroacetic acid salt]
- IC50: 946 pM
